# Measured values reported in patent publication US7557215B2, “Anthraquinone compounds as anti cancer compounds” (Somanta Limited, priority 2003, dated 2009).
# Tested on: A2780
# Experiment: Inhibition of cell growth, A2780 wild type ovarian carcinoma cell line
# Conditions: read-out: IC50 of di-N-oxides (order of cytotoxicity); text b286
row,Substance,IC50
1,"1,4-Bis-{[2-(2-chloromethylpiperidin-1-yl-N-oxide)ethyl]amino}-5,8-dihydroxyanthracene-9,10-dione [CAQ192MN]",8 µM
2,"1-{[2-(2-Chloromethylpyrrolidin-1-yl-N-oxide)ethyl]amino}-4-{[(2-dimethylamino-N-oxide)ethyl]amino}-5,8-dihydroxyanthracene-9,10-dione [CAQ181MN]",38 µM
3,"1-{[2-(3-Chloropiperidin-1-yl-N-oxide)ethyl]amino}-4-{[(2-dimethylamino-N-oxide)ethyl]amino}-5,8-dihydroxyanthracene-9,10-dione [CAQ167MN]",36 µM
4,"1-{[2-(4-Chloropiperidin-1-yle-N-oxide)ethyl]amino}-4-{[(2-dimethylamino-N-oxide)ethyl]amino}-5,8-dihydroxyanthracene-9,10-dione [CAQ179N]",46 µM

# Same assay, conditions: text b286
row,Substance,cytotoxicity ratio (CR=IC50 of alkylaminoanthraquinone-di-N-oxide/IC50 alkylaminoanthraquinone)
1,"1,4-Bis-{[2-(2-chloromethylpiperidin-1-yl-N-oxide)ethyl]amino}-5,8-dihydroxyanthracene-9,10-dione [CAQ192MN]",44
2,"1-{[2-(2-Chloromethylpyrrolidin-1-yl-N-oxide)ethyl]amino}-4-{[(2-dimethylamino-N-oxide)ethyl]amino}-5,8-dihydroxyanthracene-9,10-dione [CAQ181MN]",1293
3,"1-{[2-(3-Chloropiperidin-1-yl-N-oxide)ethyl]amino}-4-{[(2-dimethylamino-N-oxide)ethyl]amino}-5,8-dihydroxyanthracene-9,10-dione [CAQ167MN]",4167
4,"1-{[2-(4-Chloropiperidin-1-yle-N-oxide)ethyl]amino}-4-{[(2-dimethylamino-N-oxide)ethyl]amino}-5,8-dihydroxyanthracene-9,10-dione [CAQ179N]",80
